TDP1 block – blocks human tyrosyl-DNA phosphodiesterase 1; 350,000 tested, 0.28% active; AID 485290; Potency, µM (top dose mostly 130 µM), usual class: inhibitors; recombinant TDP1, AlphaScreen DNA substrate cleavage; Q9NUW8; note: nearly all actives have a fitted effect of over 40% in size
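Compounds were preincubated with Tdp1 (1 nM final) for 15 min at room temperature before substrate (15 nM final) started a 5 min reaction; beads (10 ug/ml final) were then added for 10 min before AlphaScreen detection.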
TDP1 cell CPT – DT40-hTDP1 cell growth loss with CPT; chicken DT40 Tdp1-/-;hTDP1 cells + 20 nM CPT, ATP luminescence, 48 h; AID 686979; Potency, µM (top dose mostly 46.2 µM), most hits filed as inhibitors; 420,000 tested, 12% active; note: nearly all actives have a fitted effect of over 55% in size
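Chicken DT40 Tdp1-/- cells complemented with human TDP1, 400 cells/well, exposed to compounds plus 20 nM camptothecin for at least 48 h at 37 C; viability read as ATP content by CellTiter-Glo luminescence.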
TDP1 cell noCPT – qHTS for Inhibitors of human tyrosyl-DNA phosphodiesterase 1 (TDP1): qHTS in cells in absence of CPT; 420,000 tested, 15% active; Potency, µM (highest dose often 46.2 µM), actives largely listed as inhibitors; DT40 Tdp1-/- hTDP1 cells, no CPT, ATP luminescence, 48 h; note: nearly all actives have a fitted effect of over 55% in size
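Camptothecin absent (DMSO only). Human TDP1-complemented DT40 knockout cells, 400 cells/well, 37 °C for minimum 48 hr; ATP measured via CellTiter-Glo, 30 min dark incubation, luminescence.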
miR-21 FLuc – raises the signal of a miR-21 reporter | HeLa miR-21 FLuc reporter, luciferase, 48 h | Potency, µM (doses to about 38.3 µM) | 340,000 tested, under 10 active | AID 2288; active = well fitted rising curve with a large enough effect; inconclusive = small, poorly fitted or top-dose-only effect; inactive = no such curve, though single readings can be large or run the other way;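 note: miR-21 action dims this reporter so a rising signal means less miR-21 action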
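Luminescence from a firefly luciferase reporter carrying a miR-21 binding site downstream, stably expressed under a CMV promoter in HeLa cells that make miR-21 endogenously, reports miRNA modulation after 48 h compound exposure up to approximately 40uM final.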
uPA surface inh – blocks generation of uPA at the cell surface; cell surface uPA generation assay, qHTS; Potency, µM (highest dose often 38.3 µM), hits mostly inhibitors; 330,000 tested, 0.31% active; active = well fitted inhibition curve with a large enough effect; inconclusive = small, poorly fitted or top-dose-only effect; inactive = no such curve, though single readings can be large or run the other way; tested in mouse RAW 264.7 cells; note: nearly all actives have a fitted effect of over 55% in size
A number is an active result; – = inactive; ? = inconclusive; · = no result given. A selection: hits, their analogues and other compounds. The true share with any hit is near 16%. Unless noted, calls come from the whole dose curve; as a rule, active = well fitted curve in the direction sought with a large enough effect; inconclusive = small, poorly fitted or top-dose-only effect, or another doubt; inactive = no such curve, though single readings can be large; an effect the other way counts as inactive or inconclusive.

SMILES | TDP1 block | TDP1 cell CPT | TDP1 cell noCPT | miR-21 FLuc | uPA surface inh
C[C@H]1CN([C@@H](C)CO)C(=O)c2cc(Br)cnc2O[C@H]1CN(C)Cc1ccc(Oc2ccccc2)cc1 | · | 18µM | 16µM | · | ·
C/C=C/c1cnc2c(c1)C(=O)N([C@@H](C)CO)C[C@H](C)[C@@H](CN(C)S(=O)(=O)c1ccc(C)cc1)O2 | · | 23µM | 23µM | · | ·
COc1ccc2[nH]cc(CCNc3ncncc3-c3ccccc3C(F)(F)F)c2c1 | · | 16µM | ? | · | ·
COc1ccc2[nH]cc(CCNc3ncncc3-c3ccccc3Cl)c2c1 | · | 23µM | ? | · | ·
COc1ccc2[nH]cc(CCNc3ncncc3-c3ccccc3OC)c2c1 | · | – | ? | · | ·
Cc1ccnc(NC(=O)CCC(=O)N(CC(=O)NC2CCCCC2)c2cccc(C)c2C)c1 | – | ? | ? | – | –
CCCC(=O)N(c1ccc2oc(=O)sc2c1)S(=O)(=O)c1cccs1 | – | ? | ? | – | –
CC(NC(=O)/C(C#N)=C1\N=C(NC(=O)c2cccs2)c2ccccc21)c1ccccc1 (centres undefined) | – | ? | 16µM | – | –
COCCCNC(=O)/C(C#N)=C1\N=C(NC(=O)c2cccs2)c2ccccc21 | – | ? | ? | – | –
C[C@H](CO)N1C[C@H](C)[C@@H](CN(C)C(=O)c2ccccc2)Oc2cc(C#C[C@@H](C)O)ccc2S1(=O)=O | · | – | – | · | ·
Cc1nnc(NC(=O)CSCc2c(C)noc2C)s1 | · | – | – | · | –
Cc1cc(C)c(C(=O)COc2cccnc2[N+](=O)[O-])cc1C | – | 4.1µM | 5.8µM | – | –
CC1CN(C(=O)CCC(=O)N2CCCCC2)c2cc(Cl)ccc2O1 (centres undefined) | – | – | – | – | –
COC(=O)c1ccc(CC2(C)C(=O)Nc3ccc(OC(F)(F)F)cc32)o1 (centres undefined) | · | – | – | · | ·
CC1(Cc2cc(Cl)ccc2C(F)(F)F)C(=O)Nc2cc(C(F)(F)F)ccc21 (centres undefined) | · | 23µM | 15µM | · | ·
CC1(Cc2cc(Cl)ccc2C(F)(F)F)C(=O)Nc2ccc(OC(F)(F)F)cc21 (centres undefined) | · | 23µM | 13µM | · | ·
O=C(CC1Sc2ccc(C(F)(F)F)cc2NC1=O)Nc1ccc(Cl)c(C(F)(F)F)c1 (centres undefined) | · | ? | ? | – | ·
CC1(Cc2cc(Cl)ccc2C(F)(F)F)C(=O)Nc2cc(F)ccc21 (centres undefined) | · | 26µM | 15µM | · | ·
CC1(Cc2ccc(C(F)(F)F)o2)C(=O)Nc2cc(-c3ccc(F)cc3F)ccc21 (centres undefined) | · | ? | 4.6µM | · | ·
Cn1ncc(N=Cc2ccccc2O)c1C(=O)Nc1ccccc1 | – | – | – | – | –
CCNC(=O)c1cccc(NC(=O)CC2SC(N3CCCCC3)=NC2=O)c1 (centres undefined) | · | – | – | · | –
O=C(CCc1ccccc1)N=C1SC2CS(=O)(=O)CC2N1c1ccc(F)cc1 (centres undefined) | – | – | – | – | –
CC(C)OC(=O)Cn1nnc2c(cnn2-c2ccccc2)c1=O | – | – | – | – | –
Cn1c(OCC2CCCO2)nc2cc(-c3ccccc3)sc2c1=O (centres undefined) | · | 23µM | ? | · | ·
COc1ccc(-c2cc3nc(C)n(N)c(=O)c3s2)cc1 | · | 5.8µM | 5.8µM | ? | 0.71µM
SMILES | TDP1 block | TDP1 cell CPT | TDP1 cell noCPT | miR-21 FLuc | uPA surface inh
C=CCn1c(SCCNC(C)=O)nc2cc(-c3ccccc3)sc2c1=O | – | – | – | – | –
COc1ccc(-c2nc3n(c2C)CCC3)cc1 | – | – | – | – | –
COc1ccc(-c2cc3nc4n(c(=O)c3s2)CCC4)cc1 | – | 15µM | ? | – | ·
Cc1nc2cc(-c3ccccc3)sc2c(=O)n1N | – | 16µM | ? | – | –
COc1ccc(-c2nc3ccccc3c(=O)n2N)cc1 | – | – | – | – | –
CCOc1ccc(C2C(C(=O)c3ccc(C)o3)=C(O)C(=O)N2c2cc(C)on2)cc1OC (centres undefined) | – | – | – | – | –
CCCCCC(=O)N1C[C@H](n2cc(COC(=O)c3ccccc3)nn2)[C@@H](O)C[C@@H]1c1ccc(OC)cc1 | · | 21µM | ? | · | ·

High-throughput results as filed in PubChem.
